Consider 1 molecule from patent US20050214217A1, “Methods of and pharmaceutical compositions for modulating T-lymphocyte adhesion, migration, gene expression and function by Glutamate and analogs thereof” (priority 2004, published 2005).

Amino acid sequences for entries named in this document (tags omitted). Residues count along the entry.
UniProt P42263, 29-894: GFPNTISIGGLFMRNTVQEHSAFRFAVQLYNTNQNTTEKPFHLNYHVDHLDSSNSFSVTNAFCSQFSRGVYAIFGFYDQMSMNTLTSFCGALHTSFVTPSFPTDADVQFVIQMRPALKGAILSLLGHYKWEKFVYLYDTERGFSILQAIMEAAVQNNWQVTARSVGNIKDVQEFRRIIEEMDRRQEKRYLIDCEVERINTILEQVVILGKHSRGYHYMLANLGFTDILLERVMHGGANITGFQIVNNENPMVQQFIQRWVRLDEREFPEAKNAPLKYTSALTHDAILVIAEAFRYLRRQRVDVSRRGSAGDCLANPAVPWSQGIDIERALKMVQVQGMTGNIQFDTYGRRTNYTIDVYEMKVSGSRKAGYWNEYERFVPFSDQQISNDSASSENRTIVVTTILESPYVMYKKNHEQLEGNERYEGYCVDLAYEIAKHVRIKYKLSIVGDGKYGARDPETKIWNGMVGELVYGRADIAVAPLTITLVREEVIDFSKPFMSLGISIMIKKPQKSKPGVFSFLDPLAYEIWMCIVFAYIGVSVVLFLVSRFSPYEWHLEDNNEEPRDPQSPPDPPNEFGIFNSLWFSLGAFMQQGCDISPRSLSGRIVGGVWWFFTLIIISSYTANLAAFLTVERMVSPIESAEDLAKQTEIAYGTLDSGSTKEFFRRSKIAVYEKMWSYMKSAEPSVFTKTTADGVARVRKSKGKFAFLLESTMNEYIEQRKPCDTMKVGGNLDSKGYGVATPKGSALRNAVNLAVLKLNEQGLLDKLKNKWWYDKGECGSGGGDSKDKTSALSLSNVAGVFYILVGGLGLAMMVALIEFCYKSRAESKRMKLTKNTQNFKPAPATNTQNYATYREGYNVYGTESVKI

The target in this experiment is T1, GluR3 receptor on normal human T-cells (Homo sapiens, UniProt P42263).
T1 construct: confirmed the surface expression of the GluR3 receptor on human T-cells; endogenous in cells; host or cells: normal human T-cells purified from fresh peripheral blood of healthy donors
In words: Immunofluorescence staining for surface GluR3 (FACSORT). The experiment is classed as cell-based. As to conditions: 10^−5 M Glutamate. As to the method: FIG. 9 illustrates the inhibition of human T-cell Glutamate receptor expression by Glutamate. Normal human T-cells purified from fresh blood samples were incubated with Glutamate (10^−5 M), and surface GluR3 receptor measured in samples by double immunofluorescence assay at indicated intervals (5-60 minutes). Inhibition of GluR3 expression is expressed as the percentage of GluR3-positive cells from total T-cells, divided by the baseline (Untreated cells, 0 minutes) percentage. Note the rapid, time-dependent inhibition of GluR3 expression with Glutamate, reaching 80% of baseline at 20 minutes.
Normal human T-cells, isolated from fresh peripheral blood lymphocytes, or antigen-specific mouse T-cells (directed against myelin basic protein 87-99)(Levite M et al Proc Natl Acad Sci USA 1998; 95:12544-49) were subjected to double immunofluorescence staining, using a rat polyclonal anti-human GluR3 antibody, (100 μl of 10-50 μg/ml dilution per 1×10^6 cells/tube; 30 minutes on ice), or normal rat sera for control. The rat polyclonal antibody was purified in our laboratory, from rats immunized with a specific peptide derived from the extracellular domain of the GluR3 (termed GluR3B, a.a. 372-395). The cells were then stained with an FITC-conjugated goat anti-rat IgG (50 μl of 1:100 dilution). […] Fluorescence profiles were recorded in a FACSORT.

On to `N[C@@H](CCC(=O)O)C(=O)O` [Glutamate], for which the “Surface GluR3 expression relative to baseline (pre-Glutamate value)” value (20 minutes) was determined as 80%. Besides, the “Incubation time of strongest inhibition of surface GluR3 expression” value (intervals 5-60 minutes) worked out at 20 min.
